One data set concerns the target sEH (Mus musculus, UniProt P34914). Put plainly: biochemical.
A short description of data set [1]: Pharmacokinetics after IV and PO dosing in cats, with allometric scaling. The conditions noted are these: cat, IV 1.0 mg/kg, individual animals.

Protein sequences, listed by entry. Tags and fused reporters are not part of them. Lines headed by an entry give the natural chain unless they say otherwise; changes in a name come on top.
UniProt P34914: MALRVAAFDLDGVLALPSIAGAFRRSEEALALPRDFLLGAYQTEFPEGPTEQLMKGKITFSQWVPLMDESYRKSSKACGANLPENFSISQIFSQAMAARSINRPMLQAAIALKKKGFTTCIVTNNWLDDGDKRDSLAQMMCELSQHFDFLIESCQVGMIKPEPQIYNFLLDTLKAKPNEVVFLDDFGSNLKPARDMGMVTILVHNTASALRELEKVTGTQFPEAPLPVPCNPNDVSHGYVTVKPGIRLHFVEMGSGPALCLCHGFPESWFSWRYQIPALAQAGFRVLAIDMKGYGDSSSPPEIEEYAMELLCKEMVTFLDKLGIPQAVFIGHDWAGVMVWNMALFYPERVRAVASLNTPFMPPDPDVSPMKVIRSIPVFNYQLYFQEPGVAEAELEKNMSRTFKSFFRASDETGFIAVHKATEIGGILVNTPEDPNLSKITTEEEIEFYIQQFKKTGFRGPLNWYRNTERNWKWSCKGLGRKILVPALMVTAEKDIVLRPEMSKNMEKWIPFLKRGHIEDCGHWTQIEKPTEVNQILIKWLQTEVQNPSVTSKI

In general, Ki refers to the dissociation constant of the complex between target and ligand, obtained from inhibition or displacement. Higher therefore signals a looser hold on the target. `CC(=O)N1CCC(NC(=O)NC23CC4CC(CC(C4)C2)C3)CC1` [AR9281] gave an inhibition constant Ki at sEH of 8.77 nM. For `O=C(Nc1ccc(OC(F)(F)F)cc1)N[C@H]1CC[C@H](Oc2ccc(C(=O)O)cc2)CC1` [EC1728], the Kel in data set [1] was determined as 0.03 h⁻¹.

(Values after PMC8399023 (Molecules, 2021).)
